## Binding of CDR-mutated scFvs to a peptide of the spike HR2 region

Reference: Li et al. 2023, doi:10.1038/s41467-023-39022-2. File: FLAb, binding data.

Antigen: PDVDLGDISGINAS, a 14-residue peptide of the SARS-CoV-2 spike HR2 region.

Each scFv is VH, a (GGGGS)3 linker, VL, as in the parent Ab-14, and differs from it in the CDRs of the heavy chain only.
VH: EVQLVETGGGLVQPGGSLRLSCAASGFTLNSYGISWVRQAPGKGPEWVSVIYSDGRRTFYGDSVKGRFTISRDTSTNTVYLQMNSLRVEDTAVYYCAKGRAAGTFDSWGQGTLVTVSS
VL: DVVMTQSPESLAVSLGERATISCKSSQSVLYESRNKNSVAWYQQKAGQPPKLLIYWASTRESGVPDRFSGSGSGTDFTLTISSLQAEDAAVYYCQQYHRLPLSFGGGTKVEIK

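Phage display of a naive human antibody library on the peptide gave the parent. Designed CDR sequences, proposed from the first random library and measured here. Group labels follow the data file (Ctrl: baseline library sampled from a position-specific scoring matrix, with some repeated check sequences; Rand: our label for a block that the file lists under HC and that is probably the random mutants of the ten best first-round binders; En: ensemble of fine-tuned language models; GP: Gaussian process model; GPLM: also part of the Gaussian process libraries; HC: hill climbing; Gen: genetic algorithm; Gibbs: Gibbs sampling; a sequence that several methods proposed may carry one label only). Affinity was read by AlphaSeq, a pooled yeast mating assay with surface-displayed partners. The frequency of each diploid, read from paired DNA barcodes, reflects how well the two displayed proteins bind. Each replicate has its own calibration line, from reference interactions of the BCL2 family. Each pool was mated in six replicate cultures.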

Each variant is given by its three heavy chain CDRs, as the data file delimits them; those of the parent are GFTLNSYGIS, VIYSDGRRTFYGDSVK, GRAAGTFDS. Values are log10 of the apparent Kd in nM; lower means stronger binding. "nd" means that the variant was in the library but no mating with the target was seen in that replicate; the authors take this as a sign of poor binding, and no number exists. Background: pairings of all heavy chain designs with three empty control strains gave a value in 1% of cases (median 2.08, 5th percentile 0.84). Values in that range, when seen in few replicates, are hard to tell from nonspecific mating. The parent sequence was in this pool as ten entries: three were never detected, three once, and four in most replicates, with averages from 0.34 to 2.37. Values of this round are not directly comparable with the first-round values of the same sequences. The authors' rule: three or more of the six replicates give a measured affinity, fewer mean a poor binder.

CDR-H1,CDR-H2,CDR-H3,group,"log10 Kd, replicates"
GFDLNEYGIS,VIYADGLRTSYADSVK,GQLAGTFDM,En_HC,0.31 0.38 -0.71 -0.56 -0.32 0.11
GFDLNEYGIS,VIYADGMRTQYIDSVK,GNAAGTFDK,En_HC,0.08 0.14 0.37 0.14 0.16 0.41
GFTLDSYGIS,VIYADGRRTFYGDSVK,GRVAGTFDS,GPLM_Gen,-0.17 -0.26 -0.26 -0.32 -0.39 -0.19
GFDLDEYGIS,VIYADGMRTAYTDSVK,GEVAGTFDT,En_Gen,-0.21 -0.01 0.00 -0.06 -0.12 0.30
GFDLNQYGIS,VIYSDGRRTFYSDSVK,GRAAGKFDS,GP_HC,nd nd nd nd nd nd
GFDLDEYGIS,VIYADGMRTFYADSVK,GNQAGTFDI,En_Gen,0.00 0.01 -1.24 -0.48 -0.84 -0.91
GFNLNEYGIS,VIYADGMRNFYADSVK,GLHKGFFDI,En_Gibbs,nd nd nd nd nd nd
GFDLNEYGIS,VIYADGRRTSYVDSVK,GVNAGTFDS,En_HC,0.15 1.64 0.35 0.67 0.35 0.69
GFTLNSYGIS,VIYADGLRTFYSDSVK,GRTAGKFDS,Ctrl,nd nd nd nd nd nd
GFTVNSYGIS,VIYSDGKRTFYQDSVK,GRAAGTFNS,Ctrl,nd 0.93 nd nd 1.41 nd
GFDINEYGVS,VIYADGMRTAYTDSVK,GKGAWIALV,En_Gibbs,nd nd nd nd nd nd
GFTLNSYGIS,VIYSDGRRTFYSDSVK,GRAGVTFDS,GPLM_HC,nd nd nd nd nd nd
GFILNSYGIS,VIYSDGRRTFYDDSVK,GQVAGTFDS,GP_HC,1.47 0.77 1.58 0.00 1.01 0.27
GFTLNDYGIS,VIYRDGRRTFYGDSVK,GRAALTFIS,Rand,nd nd nd nd nd nd
GFDLNEYGIS,VIYADGMRTAYVDSVK,GNTAGTFDL,En_Gen,-0.83 -1.18 -0.71 -1.12 -1.20 -1.06
GFDLNEYGIS,VIYADGRRTFYSDSVK,GQAGGTFDM,En_HC,0.77 0.74 -0.25 0.89 0.43 0.66
GFTLNSYGIS,VIYSDGRRTFYIDSVK,GMEAGTFDS,GP_HC,1.77 nd 0.57 1.09 0.35 nd
GFSLNNYGIS,VIYSDGRRTFYGDTVK,GRTAGTFDS,GPLM_Gen,0.64 0.78 0.85 0.95 0.51 1.20
GFGLNEYGIS,VIYADGVRTAYLQNVK,GEVTGFDQY,En_Gibbs,nd nd nd nd 2.03 nd
GFDLNEYGIS,VIYADGRRTAYADSVK,GEAAGTFDL,En_HC,-0.37 -0.63 -0.72 -0.72 -0.75 -0.69
GFTLNDYGIS,VIYSDGRRTFYGDSVK,GRAAGTFVD,GP_HC,1.45 nd nd 4.44 1.81 nd
GETLNSYGIS,VIYSDGRRKFYFDSVR,GRASGTFDS,Ctrl,nd nd nd nd nd nd
GFSLNAYGIS,VIYSDGRRTFYSDSVK,GRAAGTFDS,Ctrl,2.68 0.84 1.20 2.59 nd 1.84
KFDIEHYGIS,VIYADGKRTAYSNAVK,GNQGGTFNT,En_Gibbs,0.61 0.47 0.33 0.14 0.65 0.46
GFSLNSYGIS,VIYSDGRRTFYGDSVK,GQVAGTFDS,GPLM_Gen,0.10 0.26 -0.10 0.16 -0.28 0.53
DFTLNSYGIS,VIYSDGRRTFYGDEVK,GRLAGTFDS,Ctrl,0.96 0.44 2.11 0.76 1.35 2.51
GEDLQEYGIS,VIYADGTRQAYSEKVK,GQHAGFLVK,En_Gibbs,0.77 0.68 0.43 0.71 0.10 0.36
GFDLDEYGIS,VIYADGRRTAYADSVK,GENAGTFDM,En_Gen,-0.72 -0.60 -0.31 -0.76 -0.72 -0.60
GFTLNSYGIS,VIYADGIRTMYHDRVK,GRAAGTFDV,Ctrl,1.41 1.21 0.63 0.87 1.41 1.70
GFDLNNYGIS,VIYSDGRRTFYGDSVK,GEAAGTFDS,GP_Gen,nd nd nd nd nd nd
GFDLNSYGIS,VIYSDGRRTFYSDSVK,GMAGGTFDS,GP_HC,1.64 2.20 1.07 0.68 2.98 1.48
GFWLNDYGIS,VIYSDGRRTMYGDSVK,GRTAGTFDS,GP_Gibbs,0.63 1.03 0.29 1.12 1.04 1.83
GFTVNSYGIS,VIYSDGRRTWYGDSVK,GRMADTFDS,Ctrl,nd nd nd nd nd nd
GFDLEDYGIS,VIYADGKRTAYSDSVK,GENAGTFDV,En_Gen,0.15 0.69 0.62 0.24 0.52 0.66
GFTLNDYGIS,VIYSDGRRMWYIDSVK,GRAAGTFDS,GP_HC,nd 0.79 0.93 nd 2.62 1.49
GFVLNDYGIS,VIYSDGRRTFYGDSVK,GRTAGTFDS,GPLM_Gen,nd nd nd nd nd nd
GFTLNSYGIS,VIYSDGRRTMYSDSVK,GRAAGTFDS,GPLM_HC,nd 1.57 2.03 0.79 1.86 0.89
GFQLNEYGIS,VIYSDGRRTFYHDSVK,GRAAGTFDS,GP_Gen,0.50 0.79 0.34 0.61 0.63 0.87
GFKIDEYGIS,VIYADGMRTQYADKVK,VGHDGYVLQ,En_Gibbs,nd nd nd nd nd nd
GFELNSYGIS,VIYSDGRRTFYRDAVK,GKTAGTFDS,GP_Gibbs,2.38 2.62 nd 1.74 1.51 2.07
GFTLNDYLIE,VIYSDGRRTFYGDSVK,GRAALTFIS,Rand,nd nd nd nd nd nd
GETLNQYGFL,VIYSDGRRTFYSDSVK,GRAAGFFDS,Rand,nd nd nd 2.53 nd nd
GFELNKYGIS,VIYSDGRRTFYGDSVK,GAAAGTFDS,Ctrl,0.45 0.66 0.92 0.21 -0.09 0.37
GFDLESYGIS,VIYADGMRTAYADSVK,GNVAGTFDV,En_HC,-0.63 -0.72 -0.78 -0.95 -0.76 -0.62
GFTLNEYGIS,VIYSDGRRTFYGDSVK,GCIAGTFDN,GP_HC,0.94 0.55 nd 0.33 0.82 0.16

A selection of 4 entries from above:

{"CDR-H1": "GFDLNEYGIS", "CDR-H2": "VIYADGMRTAYVDSVK", "CDR-H3": "GNTAGTFDL", "group": "En_Gen", "log10 Kd, replicates": "-0.83 -1.18 -0.71 -1.12 -1.20 -1.06"}
{"CDR-H1": "GFDINEYGVS", "CDR-H2": "VIYADGMRTAYTDSVK", "CDR-H3": "GKGAWIALV", "group": "En_Gibbs", "log10 Kd, replicates": "nd nd nd nd nd nd"}
{"CDR-H1": "GFDLNEYGIS", "CDR-H2": "VIYADGRRTSYVDSVK", "CDR-H3": "GVNAGTFDS", "group": "En_HC", "log10 Kd, replicates": "0.15 1.64 0.35 0.67 0.35 0.69"}
{"CDR-H1": "GFDLNEYGIS", "CDR-H2": "VIYADGLRTSYADSVK", "CDR-H3": "GQLAGTFDM", "group": "En_HC", "log10 Kd, replicates": "0.31 0.38 -0.71 -0.56 -0.32 0.11"}